# In US20030099944A1, “Combination therapy involving drugs which target cellular proteins and drugs which target pathogen-encoded proteins” (priority 1998, published 2003):
# Experiments:
# HEL cells = test: Cell-cycle progression by FACS analysis, HEL cells; assay type: cell-based; conditions: 24 hours
# Vero cells = test: Toxicity by microscopic observation, Vero cells
compound,measurement,setting,value
"CC[C@H](CO)Nc1nc(NCc2ccccc2)c2ncn(C(C)C)c2n1 [Rosco, Roscovitine]",concentration that blocked cell-cycle progression,HEL cells,≥ 20 µM
same,concentration tolerated without evidence of toxicity,Vero cells,120 µM
